Reference: patent US6593303B1, “Anti-tumor synergetic composition” (Pharmacia & Upjohn, S.p.A., priority 1999, dated 2003)

System: disseminated L1210 murine leukemia
Assay: Antileukemic activity against disseminated L1210 murine leukemia (cells injected iv)
Conditions: Oxaliplatinum alone 8 mg/kg/day ip day +3

O=C1[O][Pt]2([NH][C@@H]3CCCC[C@H]3[NH]2)[O]C1=O [Oxaliplatinum, Oxaliplatin]
Tox (number of toxic deaths/number of mice): 0/10
